Reference: US20050042213A1, “Methods and pharmaceutical compositions for modulating heparanase activation and uses thereof” (InSight Biopharmaceuticals Ltd., priority 2003, published 2005)

What was measured:
[1] = target: T1, Cathepsin L (Homo sapiens, UniProt P07711); assay: Proteolytic activity assay: cleavage of fluorogenic peptides by cathepsin L; type: biochemical; details: substrate cleaved by Cathepsin L
T1 construct: purchased Calbiochem
Procedure: (§1) Assay was done in a reaction mixture containing 200 mM acetate buffer, pH 5.5, 4 mM EDTA and 8 mM DTT. Following a 20 minutes incubation at 37° C., fluorescence released due to proteolytic activity was determined using a BMG POLARstar™ Galaxy fluorometer: excitation at 390 nm and emission at 460 nm.

[2] = target: Cathepsin B (Homo sapiens, UniProt P07858); assay: Proteolytic activity assay: cleavage of fluorogenic peptides by cathepsin B; type: biochemical; details: substrate cleaved by Cathepsin B
Procedure: as §1

| Substance | Activity (δfluorescence) [1] | Activity (δfluorescence) [2] |
| --- | --- | --- |
| Z-FR-AMC [Cathepsin L-substrate, reference compound] | 38254 | – |
| Z-RR-AMC [Cathepsin B-substrate, reference compound] | – | 53337 |
